Reported water solubility values for industrial, environmental and drug-like chemicals

Data: OPERA 2.9 data sets, kmansouri/OPERA on GitHub.

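The OPERA project collected these measurements from public sources as training and test data for property models. A listed value is a point estimate from one report or more. Method and conditions are not stated for these values. A value may pool stereoisomers or salt forms, and the file does not say which form was measured. Some entries may be limits or estimates that an upstream database listed as plain numbers.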

Solubility in water is on a log10 molar scale (set defined at 25 °C).

Listed for CCCCCCCCSCc1cc(C)c(O)c(CSCCCCCCCC)c1: log S -5.327 (log10 mol/L).
Listed for CCC1CCCCN1C(=O)COC(=O)c1ccccc1 (stereo not drawn): log S -2.72 (log10 mol/L).
Listed for COc1cc(S(=O)(=O)CCOS(=O)(=O)[O-])c(C)cc1/N=N/c1c(S(=O)(=O)[O-])cc2c(/N=N/c3ccc(S(=O)(=O)CCOS(=O)(=O)[O-])cc3S(=O)(=O)[O-])c(N)ccc2c1O.[Na+].[Na+].[Na+].[Na+]: log S -3.749 (log10 mol/L).
Listed for COCCCNS(=O)(=O)c1ccc([O-])c(/N=N/c2c([O-])ccc3ccccc23)c1.COCCCNS(=O)(=O)c1ccc([O-])c(/N=N/c2c([O-])ccc3ccccc23)c1.[Co+3].[Na+]: log S -3.851 (log10 mol/L).
Listed for NS(=O)(=O)c1cc2c(s1)C(O)CCS2=O (stereo not drawn): log S -1.57 (log10 mol/L).
Listed for CCCCCCOC(=O)CCC: log S -3.929 (log10 mol/L).
Listed for COc1cc2c(Nc3ccc(Br)cc3F)ncnc2cc1OCC1CCN(C)CC1: log S -3.481 (log10 mol/L).
Listed for CCCCCCCCCCC(CCCCCCCC)COC(=O)[C@@H]1CCC(=O)N1 (stereo partly drawn): log S -8.311 (log10 mol/L).
Listed for CC(OC(=O)NCC1(CC(=O)O)CCCCC1)OC(=O)C(C)C (stereo not drawn): log S -2.819 (log10 mol/L).
Listed for Nc1ccc(S(=O)(=O)Nc2ccc(S(N)(=O)=O)cc2)cc1: log S -2.759 (log10 mol/L).
Listed for Nc1cc(C(=O)O)ccc1S(=O)(=O)O: log S -2.434 (log10 mol/L).
Listed for CC(C)=CCCC(C)=CCCC=O: log S -3.538 (log10 mol/L).
Listed for CC(C(=O)O)c1ccc(C(=O)c2ccccc2)s1 (stereo not drawn): log S -3.905 (log10 mol/L).
Listed for O=C(O)c1cc(=O)[nH]c2ccccc12: log S -2.839 (log10 mol/L).
Listed for CO/N=C1\CN(c2nc3c(cc2F)c(=O)c(C(=O)O)cn3C2CC2)CC1CN (stereo partly drawn): log S -3.268 (log10 mol/L).
Listed for CC(=O)OCC(=O)[C@@]12OC(C)(C)O[C@@H]1C[C@H]1[C@@H]3C[C@H](F)C4=CC(=O)C=C[C@]4(C)[C@@]3(F)[C@@H](O)C[C@@]12C: log S -4.469 (log10 mol/L).
Listed for O=C1c2ccccc2C(c2ccc(O)cc2)(c2ccc(O)cc2)N1c1ccccc1: log S -6.252 (log10 mol/L).
Listed for CCC(C)(C)OC(=N)O: log S -0.8 (log10 mol/L).
Listed for C=C[Si](C=C)(C=C)C=C: log S -4.273 (log10 mol/L).
Listed for CCOC(=O)[C@@H]1C2CCC(CC2)[C@H]1Nc1nc(Cl)ncc1F: log S -4.235 (log10 mol/L).
Listed for CC(=O)[C@H]1CC[C@H]2[C@@H]3C=CC4=CC(=O)CC[C@@]4(C)[C@@H]3CC[C@]12C: log S -4.808 (log10 mol/L).
Listed for N#CCC(=O)N/N=C/C=C/c1ccc([N+](=O)[O-])o1: log S -3.749 (log10 mol/L).
Listed for CN(O)/N=N/c1ccccc1: log S -1.526 (log10 mol/L).
Listed for Cc1c(S(C)(=O)=O)ccc(C(=O)O)c1Cl: log S -2.617 (log10 mol/L).
Listed for Nc1nc(F)nc2c1ncn2[C@@H]1O[C@H](COP(=O)(O)O)[C@@H](O)[C@@H]1O: log S -2.09 (log10 mol/L).
Listed for CN(C)c1nc(N(C)C)nc(N(C)O)n1: log S -2.37 (log10 mol/L).
Listed for CC1=CC(C)C(C=O)C(C)C1 (stereo not drawn): log S -1.844 (log10 mol/L).
Listed for NS(=O)(=O)c1ccc([O-])c(/N=N/c2c(S(=O)(=O)[O-])cc3cc(Nc4ccc5c([O-])c(/N=N/c6cc(S(N)(=O)=O)ccc6[O-])c(S(=O)(=O)[O-])cc5c4)ccc3c2[O-])c1.[Cu+2].[Cu+2].[Na+].[Na+]: log S -2.71 (log10 mol/L).
Listed for CCC(C)(O)CCCC(C)C (stereo not drawn): log S -2.694 (log10 mol/L).
Listed for CCCCCCCCCCCCOC(=O)C1=C(C)NC(C)=C(C(=O)OCCCCCCCCCCCC)C1: log S -12.35 (log10 mol/L).
Listed for CN1CCC(CN2c3ccccc3Sc3ccccc32)C1 (stereo not drawn): log S -4.305 (log10 mol/L).
Listed for OCC(O)=Nc1ccccc1: log S -0.447 (log10 mol/L).
Listed for C=CCCCC=CCOC: log S -2.615 (log10 mol/L).
Listed for CCCCCCCCCCCCCCCCCCCCCC(N)=O: log S -6.832 (log10 mol/L).
Listed for CC(CCC(=O)O)=NNC(=O)c1ccncc1: log S -1.593 (log10 mol/L).
Listed for CCOC(=O)c1ccc(/N=N/c2ccc(N)cc2N)cc1: log S -3.375 (log10 mol/L).
Listed for COC(=O)c1c(C(=O)O)ccc(OC)c1OC: log S -2.04 (log10 mol/L).
Listed for CCSC(=S)OC(C)C(=O)O (stereo not drawn): log S -1.429 (log10 mol/L).
Listed for O=S(=O)([O-])c1ccc(/N=N/c2c(O)ccc3cc(S(=O)(=O)[O-])ccc23)cc1.[Na+].[Na+]: log S -2.053 (log10 mol/L).
Listed for O=C([O-])CCC/C=C\C[C@@H]1[C@@H](/C=C/[C@@H](O)COc2cccc(Cl)c2)[C@H](O)C[C@@H]1O.[Na+]: log S -4.65 (log10 mol/L).
Listed for O=C(/C=C/c1ccc2c(c1)OCO2)N(c1ccccc1)c1ccccc1: log S -6.442 (log10 mol/L).
Listed for CCOC(CNCC(OCC)OCC)OCC: log S 0.126 (log10 mol/L).
Listed for COC1=CCC2=C(CCC3C2CCC2(C)C3CCC2(O)C#N)C1 (stereo not drawn): log S -5.683 (log10 mol/L).
Listed for CC1(C)[C@@H]2CC[C@@](C)(O)[C@H]1C2: log S -2.252 (log10 mol/L).
Listed for O=c1cccccc1O: log S -0.475 (log10 mol/L).
Listed for CC1(C)O[C@@H]2[C@@H](CO[C@@]3(COS(N)(=O)=O)OC(C)(C)O[C@@H]23)O1: log S -1.539 (log10 mol/L).
Listed for CCCCc1ccc(-c2ccc(OCC)c(F)c2F)cc1: log S -7.422 (log10 mol/L).
Listed for CC(C)N1CCN(c2ccc(OC[C@H]3CO[C@](Cn4cncn4)(c4ccc(Cl)cc4Cl)O3)cc2)CC1: log S -4.662 (log10 mol/L).
Listed for C=CC(C)(O)CCC=C(C)CCC=C(C)C (stereo not drawn): log S -4.092 (log10 mol/L).
Listed for OC1CCCCCC1: log S -0.88 (log10 mol/L).
Listed for COc1ccc(Cl)cc1P(c1cc(Cl)ccc1OC)c1cc(Cl)ccc1OC: log S -8.667 (log10 mol/L).
Listed for COc1cc(S(=O)(=O)[O-])c(C)cc1/N=N/c1c(O)ccc2cc(S(=O)(=O)[O-])ccc12.[Na+].[Na+]: log S -2.073 (log10 mol/L).
Listed for c1ccc2c(NCCCN3CCOCC3)cccc2c1: log S -2.703 (log10 mol/L).
Listed for CCCOC(=O)C1CCCCC1C(=O)OCCC (stereo not drawn): log S -3.263 (log10 mol/L).